Apparent affinities of Ab-14 variants for a coronavirus HR2 peptide

The target is the same throughout: PDVDLGDISGINAS, from the HR2 region of SARS-CoV-2 spike.

Parent scFv Ab-14: VH joined to VL by a 15-residue (Gly4Ser)3 linker. Changes lie in the heavy chain CDRs alone.
VH: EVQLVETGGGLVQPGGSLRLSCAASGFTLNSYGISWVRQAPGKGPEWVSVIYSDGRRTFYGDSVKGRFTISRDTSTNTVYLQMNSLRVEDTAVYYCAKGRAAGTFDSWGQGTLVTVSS
VL: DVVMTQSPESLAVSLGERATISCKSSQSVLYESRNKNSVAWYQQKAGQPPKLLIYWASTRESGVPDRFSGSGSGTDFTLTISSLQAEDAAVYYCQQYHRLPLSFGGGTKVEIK

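Phage display of a naive human antibody library on the peptide gave the parent. In library AAYL49, one, two or three CDR residues were substituted; doubles and triples were drawn at random. In AlphaSeq, yeast of one mating type display the scFv and yeast of the other type display the target. Binding brings cells together so that they mate, and sequencing counts the barcode pairs among the diploids. Scores were corrected for input abundance and mapped to Kd with protein pairs of known affinity run in the same pool. Each pool was mated in three replicate cultures.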

Variants are written as CDR1, CDR2 and CDR3 of the heavy chain (limits as in the source). Parent: GFTLNSYGIS, VIYSDGRRTFYGDSVK, GRAAGTFDS. The read-out is the apparent dissociation constant on a log10 scale (nM): the lower, the stronger. Averages over replicates are reported, and they cover detected replicates only. An entry "not detected" has no value in the source: the pair was not observed among the diploids in any replicate. This suggests poor binding but is not conclusive. In this assay the parent's reference entry averaged 0.65; its copy inside this library read 4.11 (one replicate of three).

| # | CDR-H1 | CDR-H2 | CDR-H3 | mean log10 Kd (nM) | detected | empty controls |
|---|---|---|---|---|---|---|
| 1 | GFTLNSYGIS | VIYSDGRRTFYGDSVK | WRAAGTFDH | 3.43 | 1 of 3 | 3 of 9 |
| 2 | GFTLNSYGNS | VIYSDGRRTFYGDVVQ | GRAAGTFDS | 3.37 | 1 of 3 | 0 of 9 |
| 3 | GFTLNSYGIS | VIYSDGLRTFYGDSVK | GDAAGCFDS | 2.68 | 3 of 3 | 0 of 9 |
| 4 | GFTLNSYGTS | VIYSDGRRTFYGDSVK | LRAAGTFDS | not detected | 0 of 3 | 0 of 9 |
| 5 | GFTLNKYGIS | VIYSDGRRIFYGQSVK | GRAAGTFDS | not detected | 0 of 3 | 0 of 9 |
| 6 | GFTLNSYGIS | SIYSDGRRTCYGDSVK | GRAAGTFDF | not detected | 0 of 3 | 0 of 9 |
| 7 | GFTLNSYGIS | VIYSDERWTFYGCSVK | GRAAGTFDS | not detected | 0 of 3 | 0 of 9 |
| 8 | GFTLNSYEIS | VIYIDGWRTFYGDSVK | GRAAGTFDS | not detected | 0 of 3 | 1 of 9 |
| 9 | GFTLNSYGIS | VIYHDGRRDFYGDSVK | GRHAGTFDS | 2.90 | 3 of 3 | 2 of 9 |
| 10 | DFTLNSYGIS | VIYSDGRRHFYGDSVQ | GRAAGTFDS | 3.19 | 2 of 3 | 2 of 9 |
| 11 | GFTCNSYGIS | VIYSDGRRTFYGDSVI | GRAAGDFDS | not detected | 0 of 3 | 1 of 9 |
| 12 | GFTLNAYGID | VIYSDGRRTFYGPSVK | GRAAGTFDS | 1.66 | 3 of 3 | 3 of 9 |
| 13 | GFTLNSYGYS | VIYSDGRRTFYGDSVK | GRAAHTFDR | 4.51 | 3 of 3 | 7 of 9 |
| 14 | GFTLNSYGIS | VIYLDGRRTFYGDSVK | GRAAGLFKS | 4.63 | 2 of 3 | 5 of 9 |
| 15 | GFTLSSYGIS | VIYSDGIRTCYGDSVK | GRAAGTFDS | 2.78 | 3 of 3 | 3 of 9 |
| 16 | GFTLNSYGHS | IIYSDGRRTFYGDSVK | GRAAGTFDS | 4.31 | 1 of 3 | 1 of 9 |
| 17 | GFTCNPYGIS | VIYSDGRRTFYGDSVV | GRAAGTFDS | 4.12 | 3 of 3 | 6 of 9 |
| 18 | GFRLNSYGIS | VIYSIGRRTFYGDSVS | GRAAGTFDS | not detected | 0 of 3 | 1 of 9 |
| 19 | HFTLNSYGIS | VIYSDGRRTPYGDRVK | GRAAGTFDS | not detected | 0 of 3 | 0 of 9 |
| 20 | GFTLGSYGIS | VIYNDLRRTFYGDSVK | GRAAGTFDS | 4.11 | 1 of 3 | 3 of 9 |
| 21 | GFTLNSWGHS | VIYYDGRRTFYGDSVK | GRAAGTFDS | not detected | 0 of 3 | 2 of 9 |
| 22 | GFTLNSYGIS | VIYSDGARDFYGDSVK | GRAAGTFQS | 4.50 | 2 of 3 | 2 of 9 |
| 23 | GFTLNSYGIS | VIYSWGRRYFYGDSVK | GRAAGTFDS | not detected | 0 of 3 | 0 of 9 |
| 24 | GFTLESIGIS | VIYSDGRRTFYGDSVK | GPAAGTFDS | not detected | 0 of 3 | 0 of 9 |
| 25 | GFTLNSYGIS | VIYSDGRRTFYTDSVH | SRAAGTFDS | 4.94 | 1 of 3 | 0 of 9 |
| 26 | GFTLNSYGQS | AIYDDGRRTFYGDSVK | GRAAGTFDS | not detected | 0 of 3 | 0 of 9 |
| 27 | GFELNSYGIS | VIYSDPRRTFYRDSVK | GRAAGTFDS | 3.96 | 1 of 3 | 2 of 9 |
| 28 | CFTLNSYGIS | VIYSDGRRVFYGDSVK | GRAAGTMDS | 3.60 | 1 of 3 | 2 of 9 |
| 29 | GFTLNSYGIM | NIYSDGRRTFYGDSVK | GRAAGTFDS | 5.69 | 1 of 3 | 1 of 9 |
| 30 | GFTLNSVGIS | VIYGDGRRTFYGDSVK | GRCAGTFDS | 4.90 | 1 of 3 | 6 of 9 |
| 31 | GFTLNQYGIS | VIYSDGRRTIYGDSVK | GRAAGTTDS | 1.21 | 3 of 3 | 1 of 9 |
| 32 | GFRLNSYSIS | VIYSDGRRAFYGDSVK | GRAAGTFDS | not detected | 0 of 3 | 1 of 9 |
| 33 | GDTVNSYGIS | VIYSDGRRTFYEDSVK | GRAAGTFDS | 3.48 | 1 of 3 | 2 of 9 |
| 34 | GFTLNEYGIS | VIYSDGRRTFYGHSVK | GRAAGTLDS | 1.26 | 3 of 3 | 2 of 9 |
| 35 | CFTLNPYGIQ | VIYSDGRRTFYGDSVK | GRAAGTFDS | 3.26 | 2 of 3 | 4 of 9 |
| 36 | GYTLNSYGIS | VIYSDGRRTFYGDSVK | GRAAGTFDV | 2.17 | 3 of 3 | 0 of 9 |
| 37 | GFHSNSYGIS | VIYSDGRLTFYGDSVK | GRAAGTFDS | 4.06 | 2 of 3 | 8 of 9 |
| 38 | GFTLNSYGIS | VIYSDGRRTFYGDSVK | GQAAGTFAS | 1.82 | 3 of 3 | 3 of 9 |
| 39 | GFTLSSYGIS | QIYSDGRRTFYCDSVK | GRAAGTFDS | not detected | 0 of 3 | 2 of 9 |
| 40 | EYTLNSGGIS | VIYSDGRRTFYGDSVK | GRAAGTFDS | not detected | 0 of 3 | 0 of 9 |
| 41 | GFTLNSYGIF | VIYSDGRRTFYGDSHK | WRAAGTFDS | 4.01 | 1 of 3 | 1 of 9 |
| 42 | GFTCNSYGTS | VIYSDGKRTFYGDSVK | GRAAGTFDS | not detected | 0 of 3 | 0 of 9 |
| 43 | GFTLWSYGIS | VIYSDMRRTFYGDSVK | GRAAGTFKS | 4.18 | 2 of 3 | 8 of 9 |
| 44 | GFTLNSYGIS | VIYSDGRRTFYGDYVG | GRAAGTQDS | 2.95 | 1 of 3 | 0 of 9 |
| 45 | GFGLNSYGIS | VIYSDGRRTFYGDSYK | GRAAGTFDQ | 2.34 | 2 of 3 | 1 of 9 |
| 46 | GFTLNSFGIQ | VIYSDGRRTFYGDSVK | GRAAGTFDI | 6.05 | 1 of 3 | 1 of 9 |
| 47 | GFTLNCYSIS | VIYSDGRRTFHGDSVK | GRAAGTFDS | not detected | 0 of 3 | 1 of 9 |
| 48 | GFTLNSYGIS | VIYSDGRSSFYGDSVK | GRAALTFDS | not detected | 0 of 3 | 0 of 9 |
| 49 | GFTLNSYGIE | VIYSDGLRTFYVDSVK | GRAAGTFDS | 4.94 | 1 of 3 | 4 of 9 |
| 50 | GFTLVSYGIS | VIESDGRPTFYGDSVK | GRAAGTFDS | not detected | 0 of 3 | 0 of 9 |
| 51 | GFTLNLYGIS | VVYSDGRRTFYGDSVK | GRAAGTFNS | not detected | 0 of 3 | 0 of 9 |
| 52 | GFTLNSYGIS | VIYGDGARTFYGDSVK | GRAAWTFDS | 3.99 | 3 of 3 | 2 of 9 |
| 53 | GFTLNSYRIE | VIYSDGRRTFYGDSVK | GRAAGTCDS | 1.73 | 3 of 3 | 3 of 9 |
| 54 | GATLNSYGIS | VIYSDGRRTFYGDSPK | GRAAGTFQS | 3.95 | 2 of 3 | 0 of 9 |
| 55 | GFTLNEYGIS | VIYSQGRRTFYGDSVK | GIAAGTFDS | 5.33 | 1 of 3 | 1 of 9 |
| 56 | GFTLNSYGIS | VIYSDGRKTFYCDSVK | ARAAGTFDS | not detected | 0 of 3 | 2 of 9 |
| 57 | GNTLNSYGIS | VIYSDGRRTFYGDSVK | GVAAGTFDS | 2.03 | 3 of 3 | 3 of 9 |
| 58 | GFTLESYGIS | VIYSDGRRNFYGDSVK | GRAVGTFDS | not detected | 0 of 3 | 0 of 9 |
| 59 | GFTLNSYGIS | VYYADGRRTFYGDSVK | GRAHGTFDS | 5.24 | 3 of 3 | 5 of 9 |
| 60 | GFMLNSYIIS | VIYSDGRRTFYGDSTK | GRAAGTFDS | not detected | 0 of 3 | 0 of 9 |
| 61 | GFTLNSYGIS | VFYSDGRRTFYGDSVK | GRACGTFDS | not detected | 0 of 3 | 1 of 9 |
| 62 | GFTLNSYGIS | VIYSDGRWTFYGDSVK | GRAAGTFKN | not detected | 0 of 3 | 1 of 9 |
| 63 | GFTLNSYGIS | VIYTDGRYTFYGDSVK | GRAAGTFDA | 5.36 | 1 of 3 | 2 of 9 |
| 64 | GFTMASYGIS | VIYSDTRRTFYGDSVK | GRAAGTFDS | 4.31 | 1 of 3 | 0 of 9 |
| 65 | SFTLNSYGIS | VIYSHGRRTFYGDSVK | GRAAGTFDS | not detected | 0 of 3 | 3 of 9 |
| 66 | GFTLISYGIS | VIYSDGRRTFYGDRVK | GRAAGTFDT | not detected | 0 of 3 | 0 of 9 |
| 67 | GFEFNSYGIS | VIYSDGRRTFYGDSVK | GRAAGTFDS | 2.25 | 3 of 3 | 1 of 9 |
| 68 | GFTLNSYGIS | VVYSDGGRTRYGDSVK | GRAAGTFDS | 3.97 | 1 of 3 | 1 of 9 |
| 69 | GFRLNSYGIS | VIYSDGRRTFYGWSVK | GRADGTFDS | not detected | 0 of 3 | 1 of 9 |

Top 8 of the variants detected in all replicates, tightest first:

{"CDR-H1": "GFTLNQYGIS", "CDR-H2": "VIYSDGRRTIYGDSVK", "CDR-H3": "GRAAGTTDS", "mean log10 Kd (nM)": "1.21", "detected": "3 of 3", "empty controls": "1 of 9"}
{"CDR-H1": "GFTLNEYGIS", "CDR-H2": "VIYSDGRRTFYGHSVK", "CDR-H3": "GRAAGTLDS", "mean log10 Kd (nM)": "1.26", "detected": "3 of 3", "empty controls": "2 of 9"}
{"CDR-H1": "GFTLNAYGID", "CDR-H2": "VIYSDGRRTFYGPSVK", "CDR-H3": "GRAAGTFDS", "mean log10 Kd (nM)": "1.66", "detected": "3 of 3", "empty controls": "3 of 9"}
{"CDR-H1": "GFTLNSYRIE", "CDR-H2": "VIYSDGRRTFYGDSVK", "CDR-H3": "GRAAGTCDS", "mean log10 Kd (nM)": "1.73", "detected": "3 of 3", "empty controls": "3 of 9"}
{"CDR-H1": "GFTLNSYGIS", "CDR-H2": "VIYSDGRRTFYGDSVK", "CDR-H3": "GQAAGTFAS", "mean log10 Kd (nM)": "1.82", "detected": "3 of 3", "empty controls": "3 of 9"}
{"CDR-H1": "GNTLNSYGIS", "CDR-H2": "VIYSDGRRTFYGDSVK", "CDR-H3": "GVAAGTFDS", "mean log10 Kd (nM)": "2.03", "detected": "3 of 3", "empty controls": "3 of 9"}
{"CDR-H1": "GYTLNSYGIS", "CDR-H2": "VIYSDGRRTFYGDSVK", "CDR-H3": "GRAAGTFDV", "mean log10 Kd (nM)": "2.17", "detected": "3 of 3", "empty controls": "0 of 9"}
{"CDR-H1": "GFEFNSYGIS", "CDR-H2": "VIYSDGRRTFYGDSVK", "CDR-H3": "GRAAGTFDS", "mean log10 Kd (nM)": "2.25", "detected": "3 of 3", "empty controls": "1 of 9"}

Empty control strains, which show no peptide, gave a signal in 15% of pairings with library AAYL49; the median was 4.06 and 95% of these signals were weaker than 2.83. No background was subtracted. For each scFv, signals with the empty controls are counted beside the result.

Source: Engelhart et al. 2022 (doi:10.1038/s41597-022-01779-4), MIT Lincoln Laboratory and A-Alpha Bio; data file from the FLAb repository.